Experimental findings from patent publication US8124361B2, “Methods of screening for sweet taste modulators” (Givaudan SA, priority 2006, dated 2012) are described below.

In test [1] the test system is HEK293T/Gα16gust44 cells. Put plainly: Fluo-4 calcium assay, negative control cells expressing Gα16gust44 only (mock transfected). The settings on record: for G16gust44 (NEG. CONTROL) AVG: p-ETBZ 100 micromolar, NDHC 1 mM, NarDHC 1 mM, cyclamate 5 mM, three replicates. Type of test: cell-based, human.
For test [2], the system named is sweet sensitive panelists. Put plainly: Ranking test of sweetness isointensity (R-index), sensory panel.
For test [3], the target named is T1, transmembrane domains of TAS1R (Homo sapiens, UniProt Q7RTX0+Q8TE23, C757R).
T1 sequence (Q8TE23 20-839): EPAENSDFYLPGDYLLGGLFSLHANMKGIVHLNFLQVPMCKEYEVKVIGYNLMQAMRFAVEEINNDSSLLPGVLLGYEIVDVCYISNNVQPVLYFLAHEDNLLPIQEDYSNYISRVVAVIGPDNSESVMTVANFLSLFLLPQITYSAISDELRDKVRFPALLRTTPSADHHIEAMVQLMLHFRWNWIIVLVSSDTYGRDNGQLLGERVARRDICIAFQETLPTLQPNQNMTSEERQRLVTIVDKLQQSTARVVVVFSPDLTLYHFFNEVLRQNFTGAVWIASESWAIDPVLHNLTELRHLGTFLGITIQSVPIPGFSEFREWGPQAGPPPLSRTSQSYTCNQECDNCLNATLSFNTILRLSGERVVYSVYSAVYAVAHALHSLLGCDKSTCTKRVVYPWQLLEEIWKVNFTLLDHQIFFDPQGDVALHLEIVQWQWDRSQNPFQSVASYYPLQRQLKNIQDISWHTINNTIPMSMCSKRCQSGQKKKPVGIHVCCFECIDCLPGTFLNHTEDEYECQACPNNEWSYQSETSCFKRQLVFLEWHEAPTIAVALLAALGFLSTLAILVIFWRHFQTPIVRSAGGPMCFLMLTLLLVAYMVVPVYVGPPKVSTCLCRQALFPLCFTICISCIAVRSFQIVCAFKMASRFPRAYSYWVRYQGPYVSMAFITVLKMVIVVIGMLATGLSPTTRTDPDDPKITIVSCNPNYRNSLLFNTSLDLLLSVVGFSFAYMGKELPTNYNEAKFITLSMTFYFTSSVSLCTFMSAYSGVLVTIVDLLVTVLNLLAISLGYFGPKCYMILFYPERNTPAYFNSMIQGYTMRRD
T1 sequence (Q7RTX0 21-852 C757R): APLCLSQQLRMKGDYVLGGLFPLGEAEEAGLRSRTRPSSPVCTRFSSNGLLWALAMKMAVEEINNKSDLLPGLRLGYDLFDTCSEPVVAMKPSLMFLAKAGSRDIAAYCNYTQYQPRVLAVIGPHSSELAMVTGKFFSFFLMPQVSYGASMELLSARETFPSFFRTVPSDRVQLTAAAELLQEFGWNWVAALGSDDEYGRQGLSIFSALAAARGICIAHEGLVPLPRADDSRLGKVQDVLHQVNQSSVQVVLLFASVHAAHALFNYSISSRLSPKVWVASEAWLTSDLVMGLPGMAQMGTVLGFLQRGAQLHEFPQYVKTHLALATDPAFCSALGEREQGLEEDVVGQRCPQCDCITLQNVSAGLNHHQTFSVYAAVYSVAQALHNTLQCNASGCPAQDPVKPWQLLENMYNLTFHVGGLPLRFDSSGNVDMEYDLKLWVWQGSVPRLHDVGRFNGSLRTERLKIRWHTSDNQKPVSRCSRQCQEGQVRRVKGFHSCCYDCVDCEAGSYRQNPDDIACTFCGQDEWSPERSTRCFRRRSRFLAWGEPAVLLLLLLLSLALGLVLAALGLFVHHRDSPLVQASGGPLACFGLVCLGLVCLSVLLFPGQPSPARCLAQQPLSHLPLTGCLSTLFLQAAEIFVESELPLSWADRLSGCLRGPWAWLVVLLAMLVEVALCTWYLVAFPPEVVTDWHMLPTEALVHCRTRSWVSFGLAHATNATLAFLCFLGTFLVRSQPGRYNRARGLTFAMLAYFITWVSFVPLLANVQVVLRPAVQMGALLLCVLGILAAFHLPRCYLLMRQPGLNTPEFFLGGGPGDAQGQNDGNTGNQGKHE
Kind of test: Identification of candidate sweetness enhancers that bind to the transmembrane domains. The note with it: identified by the applicants as candidate sweetness enhancers. Type of test: binding.

Test [4] deals with T2, T1R2-TMD (Homo sapiens, UniProt Q8TE23).
T2 sequence (Q8TE23 564-839): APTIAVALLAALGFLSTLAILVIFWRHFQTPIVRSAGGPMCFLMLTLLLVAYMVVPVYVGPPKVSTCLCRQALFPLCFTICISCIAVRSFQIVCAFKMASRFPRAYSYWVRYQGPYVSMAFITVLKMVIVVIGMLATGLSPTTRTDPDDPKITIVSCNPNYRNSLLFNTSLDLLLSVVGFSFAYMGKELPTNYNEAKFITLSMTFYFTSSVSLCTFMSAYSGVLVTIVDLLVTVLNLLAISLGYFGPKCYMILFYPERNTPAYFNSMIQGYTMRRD
Kind of test: cell-based.

[5] abbreviates: 2 ppm NDHC in water vs 1% sucrose.

Turning to `COc1ccc(CCC(=O)c2c(O)cc(O[C@@H]3O[C@H](CO)[C@@H](O)[C@H](O)[C@H]3O[C@@H]3O[C@@H](C)[C@H](O)[C@@H](O)[C@H]3O)cc2O)cc1O` [NDHC, neohesperidin dihydrochalcone], the “Neg. control (mock transfection) AVG” value in test [1] (calcium chloride 2 mM, sucralose 0.5 mM, aspartame 0.85 mM, perillartine 50 μM, cinnamonitrile 100 μM, cyclamate 1 mM, NDHC 0.33 mM, six replicates) is −524 RFU. For the same compound, the “G16gust44 (NEG. CONTROL) AVG” value in test [1] is recorded as 0.2304 dF/F. The “sweetness isointensity to sucrose” value in test [2] (2 ppm NDHC in water) is 0.5 % sucrose. Further, the NDHC sample sweetness entry in test [2] (2 ppm NDHC in water vs 0.5% sucrose) is reported as “isosweet”. In addition, in test [2] (setting [5]), the NDHC sample sweetness result is reported as “less sweet” and the R-index is 5%. Besides, in test [3], the “binding to the transmembrane domains of TAS1R” value is “bind to the transmembrane domains of TAS1R”.
Regarding `CCOc1ccc(C=O)cc1` [p-ethoxybenzaldehyde], the “AVERAGE fluorescence increase, Gα16gust44 ONLY (neg. control)” value in test [1] (100 μM p-ethoxybenzaldehyde, six replicates) was found to be 46.835 RFU. In addition, in test [1], the “G16gust44 (NEG. CONTROL) AVG” value was found to be 0.1592 dF/F. This compound had an EC50 in test [4] of 124 µM. For the same compound, the R-index in test [2] (0.5% sucrose sample ranked against 100 ppm p-ethoxybenzaldehyde in water, nose clips) is recorded as 63%; in test [2] (0.5% sucrose sample ranked against 150 ppm p-ethoxybenzaldehyde in water, nose clips) it was 3%; in test [2] (75 ppm in water vs 0.5% sucrose, nose clips), 7%; in test [2] (75 ppm in water vs 1% sucrose, nose clips), 0%; in test [2] (75 ppm p-ethoxybenzaldehyde in 7% sucrose vs 7% sucrose) it was 74%; in test [2] (75 ppm p-ethoxybenzaldehyde in 7% sucrose vs 8% sucrose) it was 36%. In addition, the R-index in test [2] (75 ppm p-ethoxybenzaldehyde in 7% sucrose vs 9% sucrose) was determined as 12%; in test [2] (75 ppm p-ethoxybenzaldehyde in 7% sucrose vs 10% sucrose) it was 1%; in test [2] (75 ppm p-ethoxybenzaldehyde in 7% sucrose vs 11% sucrose) it was 0%; in test [2] (100 ppm in water vs 150 ppm cyclamate), 51%; in test [2] (100 ppm in water vs 200 ppm cyclamate), 17%; in test [2] (100 ppm in water vs 250 ppm cyclamate), 5%. Moreover, the R-index in test [2] (100 ppm p-ethoxybenzaldehyde in 1700 ppm cyclamate vs 1700 ppm cyclamate) worked out at 87%; in test [2] (100 ppm p-ethoxybenzaldehyde in 1700 ppm cyclamate vs 1900 ppm cyclamate) it was 80%; in test [2] (100 ppm p-ethoxybenzaldehyde in 1700 ppm cyclamate vs 2100 ppm cyclamate) it was 50%; in test [2] (100 ppm p-ethoxybenzaldehyde in 1700 ppm cyclamate vs 2300 ppm cyclamate) it was 22%; in test [2] (100 ppm p-ethoxybenzaldehyde in 1700 ppm cyclamate vs 2500 ppm cyclamate), 17%; in test [2] (600 ppm (A) vs 700 ppm (B) p-ethoxybenzaldehyde in water), 74%. Moreover, the figures for the R-index in test [2] (700 ppm (A) vs 800 ppm (B) p-ethoxybenzaldehyde in water), in test [2] (800 ppm (A) vs 900 ppm (B) p-ethoxybenzaldehyde in water) and in test [2] (900 ppm (A) vs 1000 ppm (B) p-ethoxybenzaldehyde in water) were 72%, 67% and 73%, respectively.

As a reminder, the EC50 is the concentration giving half of the maximal effect. The low end stands for higher potency in that assay, the high end for lower potency in that assay.
